Test results reported in US9743646B2, “Method of establishing isogenic multi-xenograft model and the use thereof” (Crown Bioscience Inc. (Taicang), priority 2014, dated 2017).

System: SW48-parental xenograft (HD PAR-006, KRAS WT)
Assay: Tumor volume of SW48-parental xenograft in isogenic dual-xenograft mice
Type: in vivo, Nude mice
Settings: Cetuximab 0.5 mg/mouse i.p. twice per week, 2 wks, vs saline
Procedure: The SW48 series colorectal adenocarcinoma cells were obtained from Horizon Discovery Ltd (see below in Table 1 for Catalogue number details), and maintained in vitro as a monolayer culture in McCoy's 5A medium supplemented with 10% heat inactivated fetal bovine serum, 2 mM L-glutamine, with or without G418, at 37° C. in an atmosphere of 5% CO2 in air. The tumor cells were routinely subcultured every 3-5 days by trypsin-EDTA treatment. Cells growing in an exponential growth phase were harvested and counted for tumor inoculation. HD 103-002 cell line was derived from parental SW48 cell line HD PAR-006 with heterozygous knock-in of KRAS activating mutation-G13D; HD 103-007 cell line was derived from parental SW48 cell line HD PAR-006 with heterozygous knock-in of KRAS activating mutation-G12V. […]
The major endpoint was to evaluate the tumor growth. Tumor sizes were measured twice weekly in two dimensions using a caliper, and the volume were expressed in mm3 using the formula: V=0.5 a×b^2, where a and b are the long and short diameters of the tumor, respectively.

## Cetuximab
Dual model with SW48-KRAS (G12V/+)
  effect on tumor volume of the SW48-parental xenograft (FIG. 2A): reduced
Dual model with SW48-KRAS (G13D/+)
  effect on tumor volume of the SW48-parental xenograft (FIG. 1A): significantly reduced
